From US11242347B2, “2-phenyl-3,4-dihydropyrrolo[2,1-Ff] [1,2,4]triazinone derivatives as phosphodiesterase inhibitors and uses thereof” (TOPADUR PHARMA AG, priority 2015, dated 2022) come the findings set out here.

Structures are written as SMILES.

The assay concerns the target human phosphodiesterase-5 (PDE5 enzyme isolated from human platelets) (Homo sapiens (Human), UniProt O76074). Nature of the assay: PDE5 assay: formation of 5′GMP from cGMP (SPA). The following applies: for % inhibition at 5.0E−09M: percent inhibition of the control enzyme activity.

Take `CCCOc1ccc(S(=O)(=O)N2CCC(CCO)CC2)cc1-c1nn2c(CCC)c(/C=N/O)c(C)c2c(=O)[nH]1` [Compound 1r, (E)-2-(5-((4-(2-hydroxyethyl)piperidin-1-yl)sulfonyl)-2-propoxyphenyl)-5-methyl-4-oxo-7-propyl-3,4-dihydropyrrolo[2,1-f][1,2,4]triazine-6-carbaldehyde oxime]: the “% inhibition at 5.0E−09M” value was determined as 74.0%.
In turn, `CCCc1c(/C=N/OC)c(C)c2c(=O)[nH]c(-c3cc(S(=O)(=O)N4CCN(CCO)CC4)ccc3OCC)nn12` [Compound 1y, 2-(2-ethoxy-5-((4-(2-hydroxyethyl)piperazin-1-yl)sulfonyl)phenyl)-5-methyl-4-oxo-7-propyl-3,4-dihydropyrrolo[2,1-f][1,2,4]triazine-6-carbaldehyde O-methyloxime] displayed an IC50 of 4.1 nM.
In the case of `CCCc1c(/C=N/OCCO)c(C)c2c(=O)[nH]c(-c3cc(S(=O)(=O)N4CCN(CCO)CC4)ccc3OCC)nn12` [Compound 1z, (E)-2-(2-ethoxy-5-((4-(2-hydroxyethyl)piperazin-1-yl)sulfonyl)phenyl)-5-methyl-4-oxo-7-propyl-3,4-dihydropyrrolo[2,1-f][1,2,4]triazine-6-carbaldehyde O-(2-hydroxyethyl) oxime], the “% inhibition at 5.0E−09M” value is 87.0%.
